These results are taken from ChEMBL document CHEMBL4431391, “Exploration of substituted arylpiperazine-tetrazoles as promising dual norepinephrine and dopamine reuptake inhibitors” (Bioorg Med Chem, 2016).

Sequences of proteins named here, by UniProt entry; tags and fusion partners are left off.
UniProt P23975, whole entry: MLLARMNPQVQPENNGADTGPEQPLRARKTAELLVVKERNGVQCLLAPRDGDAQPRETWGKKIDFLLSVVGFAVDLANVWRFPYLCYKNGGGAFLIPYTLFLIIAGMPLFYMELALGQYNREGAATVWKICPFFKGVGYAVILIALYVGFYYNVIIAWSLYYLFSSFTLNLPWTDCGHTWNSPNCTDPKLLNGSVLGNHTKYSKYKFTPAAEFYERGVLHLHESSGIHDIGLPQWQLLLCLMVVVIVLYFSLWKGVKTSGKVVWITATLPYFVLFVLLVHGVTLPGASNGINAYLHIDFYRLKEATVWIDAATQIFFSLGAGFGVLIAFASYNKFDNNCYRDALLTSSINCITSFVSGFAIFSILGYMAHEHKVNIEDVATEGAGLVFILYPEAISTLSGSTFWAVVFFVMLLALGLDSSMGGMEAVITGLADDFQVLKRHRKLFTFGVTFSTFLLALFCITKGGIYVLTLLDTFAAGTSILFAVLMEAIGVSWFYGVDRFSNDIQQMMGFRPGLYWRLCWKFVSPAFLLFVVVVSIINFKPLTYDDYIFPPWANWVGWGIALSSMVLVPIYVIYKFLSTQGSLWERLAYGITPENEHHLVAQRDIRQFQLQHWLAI

By IC50 is commonly meant the point on the concentration scale where inhibition reaches its midpoint. Low values mean inhibition by little substance, high ones a need for much substance.

Structures are written as SMILES.

The test concerns the target Sodium-dependent noradrenaline transporter (Homo sapiens, UniProt P23975). The experiment in a line: Inhibition of [3H]-5-norepinephrine reuptake in human NET expressed in HEK293 cells by liquid scintillation counting method. It is filed as cell-based. The gist of the method:
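HEK-293 cells grown in FBS-supplemented medium, transfected with human transporter (hDAT or hNET). Uptake of radiolabeled substrate ([3H]-DA for DAT, [3H]-NE for NET) at 20 nM was measured, with inhibition assessed as reduced uptake. Method adapted with slight modification from a literature procedure.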

Compound `CC(NC(C)(C)C)C(=O)c1cccc(Cl)c1` (stereo unspecified) [BUPROPION] displayed a 50% inhibitory concentration (IC50) of 3.24 µM.
